Earlier results on 1 compound are cited in paper PMC6347521 (Current protocols in toxicology, 2018).

Molecules are shown by their SMILES.

This data set concerns rat. The conditions noted are these: ref not given; cited from earlier work.

For the compound `CC(=O)Nc1ccc(O)cc1` [Acetaminophen], the “LD50 mg/kg (rat oral)” value is recorded as 1944 mg/kg.
